Laboratory results published in patent US20140072613A1, “Compositions and Methods for Treating Cutaneous Scarring” (priority 2012, published 2014).

The chains behind the UniProt entries cited, without tags or fusion partners. Where a name states a change or a piece, a line headed by the entry shows the natural chain unless it says otherwise. Residues count along the entry.
UniProt O00418: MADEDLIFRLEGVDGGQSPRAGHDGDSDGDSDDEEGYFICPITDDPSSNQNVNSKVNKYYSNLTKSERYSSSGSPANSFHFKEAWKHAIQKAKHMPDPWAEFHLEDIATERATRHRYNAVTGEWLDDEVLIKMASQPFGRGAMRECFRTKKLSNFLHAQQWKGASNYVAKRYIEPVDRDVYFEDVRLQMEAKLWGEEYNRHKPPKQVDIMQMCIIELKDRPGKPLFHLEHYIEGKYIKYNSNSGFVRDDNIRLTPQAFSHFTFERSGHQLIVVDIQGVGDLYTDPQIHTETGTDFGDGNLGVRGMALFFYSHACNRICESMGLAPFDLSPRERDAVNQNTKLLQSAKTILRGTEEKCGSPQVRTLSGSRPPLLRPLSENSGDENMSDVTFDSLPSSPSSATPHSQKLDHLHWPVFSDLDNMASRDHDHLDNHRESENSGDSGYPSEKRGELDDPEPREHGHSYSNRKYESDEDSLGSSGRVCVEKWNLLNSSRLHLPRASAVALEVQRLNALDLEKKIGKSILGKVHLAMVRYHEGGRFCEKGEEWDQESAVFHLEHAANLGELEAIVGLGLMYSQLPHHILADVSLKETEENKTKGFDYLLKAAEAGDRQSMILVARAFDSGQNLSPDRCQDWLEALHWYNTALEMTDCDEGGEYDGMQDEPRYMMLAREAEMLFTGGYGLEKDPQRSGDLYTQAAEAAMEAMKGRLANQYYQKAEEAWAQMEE
UniProt O14965: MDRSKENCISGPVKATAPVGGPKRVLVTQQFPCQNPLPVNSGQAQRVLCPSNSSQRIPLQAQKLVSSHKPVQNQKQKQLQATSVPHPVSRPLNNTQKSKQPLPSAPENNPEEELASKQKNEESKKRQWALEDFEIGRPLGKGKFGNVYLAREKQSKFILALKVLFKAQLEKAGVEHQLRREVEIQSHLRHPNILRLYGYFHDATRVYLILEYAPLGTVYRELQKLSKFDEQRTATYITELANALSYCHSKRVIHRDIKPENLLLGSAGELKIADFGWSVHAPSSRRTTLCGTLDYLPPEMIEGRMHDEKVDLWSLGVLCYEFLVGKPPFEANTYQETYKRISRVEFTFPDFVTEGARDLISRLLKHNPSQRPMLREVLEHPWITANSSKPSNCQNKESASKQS
UniProt P35916, 25-1363: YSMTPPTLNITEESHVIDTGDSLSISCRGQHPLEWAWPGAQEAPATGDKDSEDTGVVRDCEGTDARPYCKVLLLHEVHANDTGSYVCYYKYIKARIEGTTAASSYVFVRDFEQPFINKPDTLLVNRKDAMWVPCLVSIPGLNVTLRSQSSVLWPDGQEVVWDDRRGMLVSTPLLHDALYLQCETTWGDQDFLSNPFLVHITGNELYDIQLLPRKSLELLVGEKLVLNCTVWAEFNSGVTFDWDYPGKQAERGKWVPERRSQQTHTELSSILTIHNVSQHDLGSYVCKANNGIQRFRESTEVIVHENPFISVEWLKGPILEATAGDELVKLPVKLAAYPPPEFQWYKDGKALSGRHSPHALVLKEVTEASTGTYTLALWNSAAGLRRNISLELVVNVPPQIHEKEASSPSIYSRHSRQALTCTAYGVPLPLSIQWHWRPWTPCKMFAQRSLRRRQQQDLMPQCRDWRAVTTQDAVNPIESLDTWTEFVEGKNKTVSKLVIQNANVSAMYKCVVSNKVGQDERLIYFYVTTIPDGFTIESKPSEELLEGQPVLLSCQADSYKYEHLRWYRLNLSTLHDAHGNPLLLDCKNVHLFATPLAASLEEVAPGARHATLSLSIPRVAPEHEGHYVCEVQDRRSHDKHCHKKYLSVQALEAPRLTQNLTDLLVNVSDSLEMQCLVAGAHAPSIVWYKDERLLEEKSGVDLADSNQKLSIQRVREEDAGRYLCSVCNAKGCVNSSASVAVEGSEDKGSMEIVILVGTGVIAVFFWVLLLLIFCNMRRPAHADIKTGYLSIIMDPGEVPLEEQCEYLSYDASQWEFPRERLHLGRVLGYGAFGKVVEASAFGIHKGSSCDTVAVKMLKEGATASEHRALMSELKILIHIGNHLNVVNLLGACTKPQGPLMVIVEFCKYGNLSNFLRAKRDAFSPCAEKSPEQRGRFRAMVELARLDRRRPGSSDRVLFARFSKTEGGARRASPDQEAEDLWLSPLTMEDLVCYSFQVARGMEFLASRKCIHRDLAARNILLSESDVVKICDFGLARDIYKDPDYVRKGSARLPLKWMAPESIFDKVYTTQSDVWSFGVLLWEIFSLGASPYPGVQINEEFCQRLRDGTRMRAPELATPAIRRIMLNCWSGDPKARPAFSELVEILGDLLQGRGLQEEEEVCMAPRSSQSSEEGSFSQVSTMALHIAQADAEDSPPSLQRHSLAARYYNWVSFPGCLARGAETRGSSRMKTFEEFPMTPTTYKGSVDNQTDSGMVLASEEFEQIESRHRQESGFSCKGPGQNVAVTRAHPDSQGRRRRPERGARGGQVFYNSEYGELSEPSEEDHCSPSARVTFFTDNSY
UniProt P57059: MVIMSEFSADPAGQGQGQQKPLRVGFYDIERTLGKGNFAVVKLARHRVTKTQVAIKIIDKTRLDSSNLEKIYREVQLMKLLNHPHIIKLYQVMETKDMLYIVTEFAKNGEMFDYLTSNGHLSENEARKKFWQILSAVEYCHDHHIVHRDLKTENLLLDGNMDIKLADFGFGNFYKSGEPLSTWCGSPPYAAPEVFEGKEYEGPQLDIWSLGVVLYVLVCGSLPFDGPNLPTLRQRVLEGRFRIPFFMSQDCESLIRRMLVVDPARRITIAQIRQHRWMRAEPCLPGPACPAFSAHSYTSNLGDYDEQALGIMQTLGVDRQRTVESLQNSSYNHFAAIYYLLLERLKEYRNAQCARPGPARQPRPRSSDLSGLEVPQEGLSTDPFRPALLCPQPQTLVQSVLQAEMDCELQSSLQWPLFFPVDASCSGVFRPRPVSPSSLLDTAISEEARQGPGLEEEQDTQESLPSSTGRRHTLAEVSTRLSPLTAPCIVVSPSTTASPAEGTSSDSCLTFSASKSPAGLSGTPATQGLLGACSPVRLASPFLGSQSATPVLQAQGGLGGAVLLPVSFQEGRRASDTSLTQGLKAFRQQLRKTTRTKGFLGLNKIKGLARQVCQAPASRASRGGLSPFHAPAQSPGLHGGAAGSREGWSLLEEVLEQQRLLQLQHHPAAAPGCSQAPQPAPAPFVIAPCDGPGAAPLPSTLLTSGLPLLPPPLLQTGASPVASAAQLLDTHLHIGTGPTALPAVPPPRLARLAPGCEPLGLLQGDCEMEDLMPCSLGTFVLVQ
UniProt Q86Y07: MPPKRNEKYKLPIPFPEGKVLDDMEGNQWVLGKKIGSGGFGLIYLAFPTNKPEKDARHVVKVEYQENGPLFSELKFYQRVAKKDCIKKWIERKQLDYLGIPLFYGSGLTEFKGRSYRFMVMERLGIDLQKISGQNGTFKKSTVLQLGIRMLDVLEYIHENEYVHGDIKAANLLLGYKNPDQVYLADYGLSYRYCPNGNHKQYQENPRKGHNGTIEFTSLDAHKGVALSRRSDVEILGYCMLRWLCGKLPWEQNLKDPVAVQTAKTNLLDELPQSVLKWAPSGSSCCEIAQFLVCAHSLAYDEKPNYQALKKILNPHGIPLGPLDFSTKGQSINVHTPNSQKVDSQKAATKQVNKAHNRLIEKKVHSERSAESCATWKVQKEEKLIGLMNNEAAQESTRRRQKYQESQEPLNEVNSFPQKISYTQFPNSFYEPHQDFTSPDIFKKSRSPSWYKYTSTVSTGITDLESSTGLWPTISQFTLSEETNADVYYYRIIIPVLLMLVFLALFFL
UniProt Q8N4C8: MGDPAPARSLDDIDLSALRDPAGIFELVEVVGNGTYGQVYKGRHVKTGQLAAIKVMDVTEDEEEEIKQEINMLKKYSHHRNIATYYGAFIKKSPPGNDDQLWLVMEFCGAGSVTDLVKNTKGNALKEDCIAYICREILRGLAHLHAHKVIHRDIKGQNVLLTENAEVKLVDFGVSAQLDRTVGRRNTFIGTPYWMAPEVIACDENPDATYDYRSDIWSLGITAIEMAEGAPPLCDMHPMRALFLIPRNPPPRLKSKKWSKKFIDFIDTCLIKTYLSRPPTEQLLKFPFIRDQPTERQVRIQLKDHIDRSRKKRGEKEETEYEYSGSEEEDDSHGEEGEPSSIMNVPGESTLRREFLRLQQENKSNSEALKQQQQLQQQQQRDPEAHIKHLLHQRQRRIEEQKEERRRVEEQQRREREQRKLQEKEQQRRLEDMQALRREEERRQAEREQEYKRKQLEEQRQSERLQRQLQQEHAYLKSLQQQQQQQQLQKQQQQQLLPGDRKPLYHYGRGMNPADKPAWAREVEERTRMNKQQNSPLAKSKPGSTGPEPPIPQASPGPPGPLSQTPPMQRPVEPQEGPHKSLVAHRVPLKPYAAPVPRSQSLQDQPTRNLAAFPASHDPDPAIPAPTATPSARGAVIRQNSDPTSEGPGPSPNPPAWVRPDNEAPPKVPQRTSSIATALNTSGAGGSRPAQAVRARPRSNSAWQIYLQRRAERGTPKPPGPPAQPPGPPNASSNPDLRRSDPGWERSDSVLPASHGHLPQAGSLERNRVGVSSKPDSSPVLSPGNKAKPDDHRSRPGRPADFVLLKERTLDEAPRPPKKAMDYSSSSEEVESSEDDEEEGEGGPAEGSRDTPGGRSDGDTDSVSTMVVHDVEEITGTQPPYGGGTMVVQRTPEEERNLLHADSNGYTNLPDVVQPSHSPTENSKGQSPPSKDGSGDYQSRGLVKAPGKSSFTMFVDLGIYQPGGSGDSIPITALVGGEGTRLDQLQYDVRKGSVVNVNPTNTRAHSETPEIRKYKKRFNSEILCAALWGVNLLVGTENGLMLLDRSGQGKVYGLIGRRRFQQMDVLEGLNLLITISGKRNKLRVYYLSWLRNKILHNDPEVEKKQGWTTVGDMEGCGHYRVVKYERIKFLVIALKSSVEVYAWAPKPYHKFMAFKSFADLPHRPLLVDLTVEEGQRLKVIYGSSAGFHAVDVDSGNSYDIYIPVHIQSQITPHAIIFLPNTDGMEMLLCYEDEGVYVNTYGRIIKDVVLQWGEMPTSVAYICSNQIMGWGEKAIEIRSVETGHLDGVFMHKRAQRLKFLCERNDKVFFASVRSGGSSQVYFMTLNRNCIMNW
UniProt Q9NQU5: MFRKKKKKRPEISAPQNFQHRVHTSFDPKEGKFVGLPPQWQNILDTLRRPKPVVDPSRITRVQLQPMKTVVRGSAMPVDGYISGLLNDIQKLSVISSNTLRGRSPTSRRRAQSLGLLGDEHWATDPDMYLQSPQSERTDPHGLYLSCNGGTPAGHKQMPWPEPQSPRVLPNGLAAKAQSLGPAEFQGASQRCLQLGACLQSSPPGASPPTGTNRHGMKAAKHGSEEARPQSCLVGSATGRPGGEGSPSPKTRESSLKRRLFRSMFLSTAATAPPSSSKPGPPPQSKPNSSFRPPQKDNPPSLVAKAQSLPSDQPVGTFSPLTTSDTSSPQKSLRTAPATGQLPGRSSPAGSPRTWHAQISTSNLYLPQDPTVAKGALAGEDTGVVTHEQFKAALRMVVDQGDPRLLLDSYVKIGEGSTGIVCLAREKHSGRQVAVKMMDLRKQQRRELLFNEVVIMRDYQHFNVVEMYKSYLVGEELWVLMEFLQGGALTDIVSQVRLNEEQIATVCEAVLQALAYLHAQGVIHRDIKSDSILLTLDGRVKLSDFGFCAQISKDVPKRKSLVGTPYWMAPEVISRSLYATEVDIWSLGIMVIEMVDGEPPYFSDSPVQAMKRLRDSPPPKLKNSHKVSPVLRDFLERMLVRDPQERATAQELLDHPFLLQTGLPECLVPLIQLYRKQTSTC

Key:
Type in all cases: biochemical
[1] = target: T1, 266 human kinases (Homo sapiens, UniProt O00141); settings: SGK(h); 100 μM
T1 sequence (O00141 1-431): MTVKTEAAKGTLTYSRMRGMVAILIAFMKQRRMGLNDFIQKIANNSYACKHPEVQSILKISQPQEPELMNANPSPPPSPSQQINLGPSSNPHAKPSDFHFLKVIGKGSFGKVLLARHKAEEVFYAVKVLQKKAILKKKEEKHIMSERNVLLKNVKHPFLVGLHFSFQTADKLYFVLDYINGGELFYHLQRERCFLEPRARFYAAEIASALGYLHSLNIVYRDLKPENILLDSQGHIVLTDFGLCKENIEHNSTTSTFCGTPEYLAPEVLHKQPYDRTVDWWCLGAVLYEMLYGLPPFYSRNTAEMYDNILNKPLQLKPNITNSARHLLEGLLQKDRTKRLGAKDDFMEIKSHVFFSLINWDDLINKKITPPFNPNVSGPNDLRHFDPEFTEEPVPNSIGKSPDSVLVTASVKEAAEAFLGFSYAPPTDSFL
Procedure, shortened: (§1)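 Kinase phosphorylates cationic substrate with radiolabelled ATP phosphate; substrate retained on anionic filter membrane; scintillation count; % of 100% activity control.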

[2] = target: 266 human kinases (Homo sapiens, UniProt O00418); settings: eEF-2K(h); 100 μM
Procedure, shortened: as §1

[3] = target: 266 human kinases (Homo sapiens, UniProt O14965); settings: Aurora-A(h); 100 μM
Procedure, shortened: as §1

[4] = target: 266 human kinases (Homo sapiens, UniProt P04049); settings: c-RAF(h); 100 μM
Procedure, shortened: as §1

[5] = target: 266 human kinases (Homo sapiens, UniProt P35916); settings: Flt4(h); 100 μM
Procedure, shortened: as §1

[6] = target: 266 human kinases (Homo sapiens, UniProt P50750); settings: CDK9/cyclin T1(h); 100 μM
Procedure, shortened: as §1

[7] = target: 266 human kinases (Homo sapiens, UniProt P57059); settings: SIK(h); 100 μM
Procedure, shortened: as §1

[8] = target: 266 human kinases (Homo sapiens, UniProt Q86Y07); settings: VRK2(h); 100 μM
Procedure, shortened: as §1

[9] = target: 266 human kinases (Homo sapiens, UniProt Q8N4C8); settings: MINK(h); 100 μM
Procedure, shortened: as §1

[10] = target: T2, 266 human kinases (Homo sapiens, UniProt Q9H2K8); settings: TAO3(h); 100 μM
T2 sequence (Q9H2K8 1-898): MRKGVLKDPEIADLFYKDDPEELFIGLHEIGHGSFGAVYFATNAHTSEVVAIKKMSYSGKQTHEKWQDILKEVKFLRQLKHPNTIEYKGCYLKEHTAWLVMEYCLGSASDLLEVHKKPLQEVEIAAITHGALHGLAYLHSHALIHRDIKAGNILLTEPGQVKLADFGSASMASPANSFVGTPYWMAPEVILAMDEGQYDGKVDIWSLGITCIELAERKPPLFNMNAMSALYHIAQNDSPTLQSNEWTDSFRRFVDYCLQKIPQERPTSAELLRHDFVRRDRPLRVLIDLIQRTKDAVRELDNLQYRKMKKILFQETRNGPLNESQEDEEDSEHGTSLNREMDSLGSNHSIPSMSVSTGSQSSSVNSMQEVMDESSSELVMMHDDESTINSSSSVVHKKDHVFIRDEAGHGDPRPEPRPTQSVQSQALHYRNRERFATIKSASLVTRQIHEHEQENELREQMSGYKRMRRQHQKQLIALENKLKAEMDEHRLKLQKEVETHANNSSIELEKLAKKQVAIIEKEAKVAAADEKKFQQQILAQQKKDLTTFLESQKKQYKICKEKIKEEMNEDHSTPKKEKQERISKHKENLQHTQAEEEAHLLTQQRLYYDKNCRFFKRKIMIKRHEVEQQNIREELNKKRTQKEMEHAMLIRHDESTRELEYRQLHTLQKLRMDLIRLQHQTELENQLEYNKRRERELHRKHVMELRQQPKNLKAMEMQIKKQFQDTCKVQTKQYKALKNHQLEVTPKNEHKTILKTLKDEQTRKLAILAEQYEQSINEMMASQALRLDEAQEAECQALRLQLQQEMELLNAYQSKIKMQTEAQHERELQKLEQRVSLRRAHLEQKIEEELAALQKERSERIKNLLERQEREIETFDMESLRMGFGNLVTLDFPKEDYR
Procedure, shortened: as §1

[11] = target: 266 human kinases (Homo sapiens, UniProt Q9NQU5); settings: PAK6(h); 100 μM
Procedure, shortened: as §1

YARAAARQARAKALNRQLGVA (mammal) [MMI-0200]
% activity [1]: 115%
% activity [2]: 136%
% activity [3]: 107%
% activity [4]: 115%
% activity [5]: 105%
% activity [6]: 103%
% activity [7]: 102%
% activity [8]: 109%
% activity [9]: 103%
% activity [10]: 102%
% activity [11]: 105%
